In patent publication US6365373 (Genentech, dated 2002):
Numbering of substitutions follows the chain as printed.

B1: NGF123 (ligand)
chain: SSSHPIFHRGEFSVCDSESLWVTDKTTAIDIKGKEVMVLGEVNINNSVFKQYFFETKCRDPNPVDSGCRGIDSKHWNSYCKTTQTFVKALTMDGKQAAWRFIRIDTACVCVLSRKAVRRA
B2: NGF125 (ligand)
chain: B1 chain with I29T, F54Y, K57R
B3: NGF124 (ligand)
chain: B1 chain with I29T, Y79Q, F86Y
B4: NGFR1 (ligand)
chain: B1 chain with T23G, I29T
B5: NGF126 (ligand)
chain: B1 chain with I29T, F86Y

The binders below were run against T1, human trkC receptor immunoadhesin (trkC extracellular domain fused to immunoglobulin constant domains) (human, UniProt Q16288 32-429) (assay: competitive displacement of labeled NT-3 from human trkC immunoadhesin, 96-well plate).
T1 construct: extracellular domain; not shown: immunoglobulin constant domains

In order of falling IC50mut/IC50NT-3:
1. B4  3560 ratio
2. B1  17.9 ratio
3. B2  14 ratio
4. B5  3.3 ratio

In order of falling IC50mut/IC50NGF12:
1. B4  242 ratio
2. B2  0.9 ratio
3. B3  0.5 ratio
4. B5  0.2 ratio

These binders were tested against T1, human trkC receptor immunoadhesin (trkC …) (assay: competitive displacement binding to human trkC immunoadhesin).

B5 was tested, and the “improvement in binding to trkC compared to NGF12” value was 4.5 fold.
